From PMC3805374 (Life sciences, 2013)
Read-outs that look alike come from different tables or passages of the source.

The chains behind the UniProt entries cited, without tags or fusion partners. Where a name states a change or a piece, a line headed by the entry shows the natural chain unless it says otherwise.
UniProt P18901, whole entry: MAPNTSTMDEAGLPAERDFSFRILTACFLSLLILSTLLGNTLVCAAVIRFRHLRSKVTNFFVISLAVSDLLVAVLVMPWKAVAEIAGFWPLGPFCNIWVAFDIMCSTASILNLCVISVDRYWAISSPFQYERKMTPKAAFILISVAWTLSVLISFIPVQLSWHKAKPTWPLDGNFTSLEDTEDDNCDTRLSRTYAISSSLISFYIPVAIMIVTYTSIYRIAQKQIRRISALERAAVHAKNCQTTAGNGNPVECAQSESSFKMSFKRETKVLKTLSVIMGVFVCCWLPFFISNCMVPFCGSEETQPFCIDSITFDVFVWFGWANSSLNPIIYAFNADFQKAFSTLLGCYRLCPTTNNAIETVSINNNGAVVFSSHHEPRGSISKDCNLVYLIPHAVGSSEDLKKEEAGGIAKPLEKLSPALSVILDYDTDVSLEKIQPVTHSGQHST

Assays:
[1] = target: HA-rat D1 dopamine receptor (D1R) (Rattus norvegicus, UniProt P18901); experiment: Saturation binding of [3H]SCH23390 to the D1R in NG 108-15-HA-D1R cell membranes
HA-D1R = HA-D1R (Rattus norvegicus, UniProt P18901); assay type: binding; settings: CHO-FLAG-DOPR/HA-D1R

CN1CCc2cc(Cl)c(O)cc2C(c2ccccc2)C1 (centres unmarked) [[^3H]SCH23390]
Bmax of [3H]SCH23390 binding to the D1R [1]: 180 ± 34 fmol/mg protein
Bmax of [3H]SCH23390 binding to the D1R (HA-D1R): 2.17±0.14 pmol/mg protein
Bmax of [3H]SCH23390 binding (HA-D1R; control (vehicle pretreatment 30 min), Table 3): 2.17 ± 0.14 fmol/mg protein
Bmax of [3H]SCH23390 binding (HA-D1R; pretreatment DPDPE 10 μM 30 min): 2.04 ± 0.12 fmol/mg protein
Bmax of [3H]SCH23390 binding (HA-D1R; pretreatment SKF-82958 10 μM 30 min): 2.54 ± 0.88 fmol/mg protein
